ChEMBL document CHEMBL3994656, “Furanoterpenes, new types of protein tyrosine phosphatase 1B inhibitors, from two Indonesian marine sponges, Ircinia and Spongia spp” (Bioorg Med Chem Lett, 2017)

Columns and labels:
Homo sapiens [1] = species: Homo sapiens; assay: Selectivity ratio of IC50 for full length recombinant N-terminal GST-tagged human TCPTP expressed in Escherichia coli to IC50 for recombinant human PTP1B (1 to 322 residues) expressed in Escherichia coli
Homo sapiens [2] = species: Homo sapiens; assay: Selectivity ratio of IC50 for human CD45 cytoplasmic domain (584 to 1281 residues) expressed in yeast to IC50 for recombinant human PTP1B (1 to 322 residues) expressed in Escherichia coli

Question: Which results are given for `CC1=C(O)/C(=C/[C@@H](C)CCC/C(C)=C/CC/C(C)=C/CCc2ccoc2)OC1=O`?
Answer: Ratio IC50 (Homo sapiens [1]): 2; Ratio IC50 (Homo sapiens [2]): 4
